# Results taken from patent US20240034730A1, “PYRAZOLO DERIVATIVES AS HUMAN DIHYDROOROTATE DEHYDROGENASE (HDHODH) INHIBITORS FOR USE AS ANTIVIRALS” (DRUG DISCOVERY AND CLINIC S.R.L., priority 2020, published 2024).
# By UniProt entry, the sequences of proteins in these tests, tags left out. Where a name states a change or a piece, a line headed by the entry shows the natural chain unless it says otherwise.
# UniProt Q02127: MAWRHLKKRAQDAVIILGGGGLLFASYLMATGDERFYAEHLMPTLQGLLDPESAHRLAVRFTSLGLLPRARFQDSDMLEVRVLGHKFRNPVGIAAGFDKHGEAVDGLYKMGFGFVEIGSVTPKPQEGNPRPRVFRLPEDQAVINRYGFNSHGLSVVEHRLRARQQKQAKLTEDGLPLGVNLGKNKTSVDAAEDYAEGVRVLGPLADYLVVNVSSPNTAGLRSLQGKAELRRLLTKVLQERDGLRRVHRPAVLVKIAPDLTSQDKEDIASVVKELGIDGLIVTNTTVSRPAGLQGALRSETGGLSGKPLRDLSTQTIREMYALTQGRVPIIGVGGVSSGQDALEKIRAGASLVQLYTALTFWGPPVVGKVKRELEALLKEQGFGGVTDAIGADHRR
# Experiments:
# [1] = molecular target: recombinant hDHODH (Homo sapiens (Human), UniProt Q02127); test: hDHODH inhibition assay (DCIP reduction); format: biochemical; conditions: recombinant GST-hDHODH; means ± SE of three independent experiments
# [2] = log D (pH 7.4), shake-flask n-octanol/PBS; conditions: n-octanol/PBS pH 7.4, shake flask
substance,measurement,setting,value
"2-Hydroxy-N-(2-methyl-4-(p-tolyloxy)phenyl) pyrazolo[1,5-a]pyridine-3-carboxamide [Compound 28]",IC50,[1],400 ± 60 nM
same,Log D7.4 ± SD,[2],2.46 ± 0.05
